# Measured values as given in PubChem BioAssay AID2797 (The Scripps Research Institute Molecular Screening Center, 2010).
# The chains behind the UniProt entries cited, without tags or fusion partners.
# UniProt P37288, whole entry: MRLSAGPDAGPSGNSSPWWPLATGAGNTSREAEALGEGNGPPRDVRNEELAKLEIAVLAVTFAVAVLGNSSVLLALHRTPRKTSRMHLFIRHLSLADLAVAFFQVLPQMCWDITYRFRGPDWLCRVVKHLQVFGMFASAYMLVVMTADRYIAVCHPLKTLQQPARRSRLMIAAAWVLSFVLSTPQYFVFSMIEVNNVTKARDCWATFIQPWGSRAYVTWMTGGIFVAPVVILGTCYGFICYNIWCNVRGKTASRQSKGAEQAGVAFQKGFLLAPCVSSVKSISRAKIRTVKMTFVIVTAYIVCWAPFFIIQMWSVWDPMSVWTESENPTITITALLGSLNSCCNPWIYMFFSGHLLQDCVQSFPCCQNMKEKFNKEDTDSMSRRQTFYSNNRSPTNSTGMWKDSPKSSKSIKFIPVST
# The entries are a selection whose mix differs from that of the whole data set. Activity calls are given as the source filed them.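 The calls were made as follows: active = activation above the mean activation of all tested compounds plus 3 SD, per screening run (cut at about 20% in these data); inactive = the rest.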
# Target: Vasopressin V1a receptor (Homo sapiens) (UniProt P37288)
# Assay: agonists of human V1a receptor, primary screen, counter-screen for OXTR agonist project, fluorescence, CHO-V1R cells (AID 2797);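 also: signal is peak over basal fluorescence ratio across a 100 second FLIPR read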
# Details: Fluo-8 calcium fluorescence, agonist mode, at 3 µM, active compounds read high, 0% DMSO, 100% 3 nM vasopressin
row,SMILES,activation
1,CCc1ccc(OP(C)(=O)O)cc1,inactive: 0.34%
2,COc1ccccc1OP(C)(=O)Nc1ccc(C)cc1C (configuration not stated),inactive: 0%
3,CP(=O)(Nc1ccccn1)Oc1ccccc1 (configuration not stated),inactive: -0.17%
4,Cc1c(NP(C)(=O)Oc2ccc(C(C)C)cc2)c(=O)n(-c2ccccc2)n1C (configuration not stated),inactive: -0.1%
5,O=[N+]([O-])c1cc([N+](=O)[O-])c(Nc2ccccn2)c([N+](=O)[O-])c1,inactive: 3.06%
6,CN(C)CCOC(=O)C(O)(c1ccccc1)C1CCCC1 (configuration not stated),inactive: -0.43%
7,COc1ccc(OP(C)(=O)Nc2ccccn2)cc1 (configuration not stated),inactive: 0.7%
8,COc1ccccc1OP(C)(=O)Nc1ccc(Br)cc1 (configuration not stated),inactive: -1.17%
9,CP(=O)(Nc1ccc(Cl)cc1Cl)Oc1ccccc1 (configuration not stated),inactive: -1.15%
10,CP(=O)(OCCOc1ccccc1)OCCOc1ccccc1,inactive: -0.81%
11,Cc1nc2ccc3ccccc3c2o1.O=[N+]([O-])c1cc([N+](=O)[O-])c(O)c([N+](=O)[O-])c1,inactive: 1.96%
12,COc1ccc(OP(C)(=O)Nc2ccccc2Br)cc1 (configuration not stated),inactive: 0.42%
13,COc1ccccc1OP(C)(=O)Nc1ccc(C)c(C)c1 (configuration not stated),inactive: -0.91%
14,Cc1cc(C)cc(OP(C)(=O)Nc2cccc(C(F)(F)F)c2)c1 (configuration not stated),inactive: -1.59%
15,CP(=O)(OC12CC3CC(CC(C3)C1)C2)OC12CC3CC(CC(C3)C1)C2,inactive: -1.43%
16,CCOC(=O)c1ccc(NP(C)(=O)Oc2ccc(Cl)cc2)cc1 (configuration not stated),inactive: 1.97%
17,Nc1ccc2c(ccc3cccnc32)n1.O=[N+]([O-])c1cc([N+](=O)[O-])c(O)c([N+](=O)[O-])c1,inactive: -0.35%
18,CN(C)C(=O)c1c([N+](=O)[O-])cc([N+](=O)[O-])cc1[N+](=O)[O-],inactive: -0.06%
19,CP(=O)(Nc1ccc(Cl)cc1)Oc1ccc(F)cc1 (configuration not stated),inactive: 0.38%
20,COc1ccccc1OP(C)(=O)Nc1ccccc1Br (configuration not stated),inactive: 0.06%
21,CC(C)(C)c1ccc(OP(C)(=O)O)cc1,inactive: 0.42%
22,CCc1ccc(OP(C)(=O)Nc2cccnc2)cc1 (configuration not stated),inactive: -0.55%
23,CP(=O)(Oc1ccccc1)N1CCOC1=O (configuration not stated),inactive: 1.26%
24,O=C(OCCCN1CCCC1)C(O)(c1ccccc1)C1CCCCC1 (configuration not stated),inactive: -0.15%
25,COc1ccccc1OP(C)(=O)Nc1c(C)n(C)n(-c2ccccc2)c1=O (configuration not stated),inactive: 4.11%
26,COc1ccc(OP(C)(=O)Nc2ccc(Br)cc2)cc1 (configuration not stated),inactive: 1.89%
27,CCN(CC)CC(O)COC(=O)C(O)(c1ccccc1)C1CCCCC1 (configuration not stated),inactive: 0.4%
